# Laboratory results taken from patent US6825348B2, “Antiviral compounds” (Academia Sinica, priority 2002, dated 2004).
# System: Spleen phosphodiesterase
# Conditions: pH 6.5, 37° C., 8 h
substance,measurement,value
9-(β-D-furanosyl)adenine-3′-[[1-(adenin-7-yl-ethoxy)methyl]phosphonate],yield of 20 with spleen phosphodiesterase,60%
same,yield of adenosine with spleen phosphodiesterase,40%
